We go through 1 substance from patent US11103459B2, “Method of drug formulation based on increasing the affinity of active agents for crystalline microparticle surfaces” (MannKind Corporation, priority 2005, dated 2021).

This data set is described as follows: Active agent/FDKP microparticle adsorption studies (loading curves, HPLC). It counts as physicochemical. As to conditions: aqueous solution, presence of salt. How it is done:
Aqueous samples at varying pH and at 20° C. (unless otherwise noted) were analyzed.
The association of active agent with diketopiperazine (DKP) particles in suspension was evaluated by conducting adsorption studies.
Unbound active agent in the supernatant was filtered off the suspension. […] The amount of active agent in both the supernatant and reconstituted fractions was quantitated by HPLC. A series of experiments were conducted in which conditions employed included use of additives such as salts, osmolytes, chaotropes and kosmotropes, and alcohols.
The concentration of the chaotrope or kosmotrope in the samples was held constant at 100 mM and the pH varied from 2.0 to 5.0. Chaotropes or kosmotropes were selected from the following: NaSCN, CsCl, Na2SO4, (CH3)3N—HCl, […], Na Citrate, and NaClO4. The control indicates no chaotrope or kosmotrope were added. […]
In assessing the effect of modifiers on the active agent that allows for adsorption to the microparticle surface by a hydrophobic mechanism, the effect of alcohols were examined. […] Each alcohol was evaluated at varying concentrations which include 5%, 10%, 15%, or 20% v/v.
The amount of active agent detected in reconstituted microparticle-free control samples as a function of pH and NaCl concentration was assessed. […]

As to Texas Red [reference compound], the “partitioning of dye onto the microparticle surface” value is listed as “partition the dye Texas Red onto the surface of the microparticle”.
